Columns and labels:
δ-opioid receptors [1] = molecular target: T1, δ-opioid receptors (Rattus norvegicus, UniProt P33533); experiment: Rat brain synaptosome (P2) binding, agonist [3H]DPDPE (Example 47); conditions: rat brain synaptosomes (P2); mean ± SEM, n in parentheses; read-out: Kiδ(nM) [^3H]DPDPE
T1 construct: assayed with a rat brain synaptosomal preparation (P2); from tissue; host or cells: rat brain P2 synaptosomes

Protein sequences, listed by entry. Tags and fused reporters are not part of them. Lines headed by an entry give the natural chain unless they say otherwise; changes in a name come on top.
UniProt P33533, whole entry: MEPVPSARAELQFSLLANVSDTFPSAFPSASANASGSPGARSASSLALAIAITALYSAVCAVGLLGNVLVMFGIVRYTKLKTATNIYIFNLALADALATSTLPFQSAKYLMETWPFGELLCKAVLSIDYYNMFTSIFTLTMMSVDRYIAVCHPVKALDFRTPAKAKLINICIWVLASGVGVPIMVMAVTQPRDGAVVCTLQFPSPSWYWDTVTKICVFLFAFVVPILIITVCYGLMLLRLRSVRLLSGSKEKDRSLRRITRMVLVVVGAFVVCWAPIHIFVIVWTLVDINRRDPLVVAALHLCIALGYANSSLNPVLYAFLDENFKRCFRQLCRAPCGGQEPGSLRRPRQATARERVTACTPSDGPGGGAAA

δ-opioid receptors [2] = molecular target: T1, δ-opioid receptors; experiment: Rat brain synaptosome (P2) binding, δ antagonist [3H]N,N(CH3)2-Dmt-Tic-OH (Example 47); conditions: rat brain synaptosomes (P2); δ antagonist radioligand; mean ± SEM, n in parentheses; read-out: Kiδ(nM) [^3H]N,N(CH3)2-Dmt-Tic-OH

**Q.** What does the source list for `Cc1cc(O)cc(C)c1CC(N)C(=O)N1Cc2ccccc2C[C@H]1C(=O)O` (stereo partly drawn) [H-(R,S)Dmt-Tic-OH, reference compound]?
**A.** Ki (δ-opioid receptors [1]): 0.46 ± 0.001 nM; Ki (δ-opioid receptors [2]): 0.8 ± 0.19 nM
